From US6284914A, “Highly water-soluble metalloproteinase inhibitors” (Fuji Yakuhin Kogyo Kabushiki Kaisha, priority 1995, dated 2001)

Molecular target: T1, collagenase (MMP-1) (Homo sapiens, UniProt P03956)
T1 construct: endogenous in cells; host or cells: human fibroblast
T1 sequence (P03956 100-469): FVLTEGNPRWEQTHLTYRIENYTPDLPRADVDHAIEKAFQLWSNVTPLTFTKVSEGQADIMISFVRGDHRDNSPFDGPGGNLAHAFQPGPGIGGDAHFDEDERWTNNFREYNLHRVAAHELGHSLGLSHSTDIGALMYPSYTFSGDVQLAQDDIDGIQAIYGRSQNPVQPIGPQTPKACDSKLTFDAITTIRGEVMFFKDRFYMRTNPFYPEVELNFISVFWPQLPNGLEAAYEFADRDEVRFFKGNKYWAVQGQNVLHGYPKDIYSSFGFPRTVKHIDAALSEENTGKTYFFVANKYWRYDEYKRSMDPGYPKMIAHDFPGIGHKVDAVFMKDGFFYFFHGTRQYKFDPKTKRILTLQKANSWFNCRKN
Assay: Assay for Collagenase Inhibitory Activity (MMP-1)
Assay type: biochemical
Details: fluorescein-labeled bovine type I collagen substrate, 35° C., 2 hours, pH 7.5; read-out: Inhibitory activities for matrix metalloproeinases (MMPs), MMP-1, IC50 value
Description: Inhibitory activities of the compounds represented by the general formula (I) according to the invention for collagenase (metalloproteinase concerned with a tissue destruction) derived from human fibroblast were tested by the method of Y. Murawaki et al., [Journal of Hepatology, 18, p. 328-334 (1993)], and their inhibitory activities for stromelysin derived from human fibroblast were measured by the method of S. S. Twining et al., [Anal. Biochem., 143, p. 30 (1984)].
Inhibitory activities for collagenase (MMP-1) of the compounds of Examples and comparative compounds were measured by the method of Y. Murawaki et al., [Journal of Hepatology, 18, p. 328-334 (1993)]. The latent procollagenase was activated by incubating with mercury aminophenylacetate (2 mM) at 35° C. for 2 hours. The assay was done by using bovine type I collagen labeled with fluorescein as a substrate. The activated collagenase was added to the substrate solution (0.5 mg/ml) in Tris HCl buffer (50 mM, pH 7.5) containing sodium chloride (0.4 M) and calcium chloride (10 mM). The obtained solution was incubated at 35° C. for 2 hours. The enzyme digestion was stopped by the addition of o-phenanthroline (80 mM). […] The supernatant was taken, and its intensity of fluorescence was determined by the excitation wavelength (495 nm) and the measured wavelength (520 nm), and the inhibitory activity was obtained. […]

CNC(=O)[C@H](Cc1ccc(OC)cc1)NC(=O)[C@@H](CC(=O)NO)CC(C)C [Comparative Compound 1, N-[4-(N-Hydroxyamino)-2(R)-isobutylsuccinyl]-O-methyl-L-tyrosine-N-methylamide, reference compound]
IC50: 4 nM
